IC50 data for 22 molecules are collected here from US5288851A, “Renin inhibitors, processes for preparing them, methods for using them, and compositions containing them” (Warner-Lambert Company, priority 1992, dated 1994).

Sequences of proteins named here, by UniProt entry; tags and fusion partners are left off. Residues count along the entry.
UniProt P00797, 67-406 limits assumed: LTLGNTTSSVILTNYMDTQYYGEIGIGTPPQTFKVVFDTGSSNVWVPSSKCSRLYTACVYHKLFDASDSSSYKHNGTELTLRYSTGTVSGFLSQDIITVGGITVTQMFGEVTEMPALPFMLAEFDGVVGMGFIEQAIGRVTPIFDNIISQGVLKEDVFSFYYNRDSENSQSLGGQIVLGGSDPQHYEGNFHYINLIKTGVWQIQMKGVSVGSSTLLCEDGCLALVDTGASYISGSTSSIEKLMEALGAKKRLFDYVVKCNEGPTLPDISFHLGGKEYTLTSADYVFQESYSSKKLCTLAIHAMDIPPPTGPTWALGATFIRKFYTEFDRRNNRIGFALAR

The test deals with renin (Homo sapiens, UniProt P00797). Description: in vitro renin inhibitory activity, radioimmunoassay for angiotensin I. It counts as biochemical. Particulars: renin incubated two hours at 37° with substrate angiotensinogen; angiotensin I by radioimmunoassay; molar concentration causing 50% inhibition.

`CC(=O)NCCCC[C@H](NC(=O)[C@H](Cc1ccccc1)NS(=O)(=O)N1CCOCC1)C(=O)N[C@@H](CC(C)C)C(O)C(F)(F)C(=O)NCCN1CCOCC1` (stereo partly shown): the IC50 was determined as 3000 nM. The same measure for `CCC(C)CNC(=O)C[C@H](O)[C@H](CC(C)C)NC(=O)[C@H](Cc1cnc[nH]1)NC(=O)[C@H](Cc1ccccc1)NS(=O)(=O)N1CCCC1` (stereo partly shown): 58 nM; for `CC(C)C[C@H](NC(=O)[C@H](Cc1c[nH]cn1)NC(=O)[C@H](Cc1ccccc1)NS(=O)(=O)N(C)C)[C@@H](O)CC(=O)NCCN1CCOCC1`: 900 nM.

`O=C(N[C@@H](CC1CCCCC1)C(=O)C(F)(F)C(=O)NCCN1CCOCC1)[C@H](Cc1c[nH]cn1)NC(=O)[C@H](Cc1ccccc1)NS(=O)(=O)N1CCOCC1` showed an IC50 of 1 nM.

In the case of `CNC(=S)NCCCC[C@H](NC(=O)[C@H](Cc1ccccc1)NS(=O)(=O)N(C)C)C(=O)N[C@@H](CC1CCCCC1)[C@@H](O)CC(=O)NCCN1CCOCC1`, the IC50 is 20 nM. The same measure for `CN(C)S(=O)(=O)N[C@@H](Cc1ccccc1)C(=O)N[C@@H](Cc1c[nH]cn1)C(=O)N[C@@H](CC1CCCCC1)[C@@H](O)CC(=O)NCCN1CCOCC1`: 20 nM; for `C=CC[C@H](NC(=O)[C@H](Cc1ccccc1)NS(=O)(=O)N1CCOCC1)C(=O)N[C@@H](CC1CCCCC1)C(=O)C(F)(F)C(=O)NCCN1CCOCC1`: 0.9 nM. For the molecule `COC(=O)C(NC(=O)[C@H](Cc1ccccc1)NS(=O)(=O)N1CCOCC1)C(=O)N[C@@H](CC(C)C)C(O)C(F)(F)C(=O)NCCN1CCOCC1` (stereo partly shown), the IC50 is 40 nM.

With `CC[C@H](C)CNC(=O)C[C@H](O)[C@H](CC(C)C)NC(=O)[C@H](Cc1cnc[nH]1)NC(=O)[C@H](Cc1ccccc1)NS(=O)(=O)N1CCNCC1`, the IC50 was determined as 350 nM. Regarding `CC[C@H](C)CNC(=O)C[C@H](O)[C@H](CC(C)C)NC(=O)[C@H](Cc1cnc[nH]1)NC(=O)[C@H](Cc1ccccc1)NS(=O)(=O)N1CCN(C)CC1`, the 50% inhibitory concentration (IC50) is 150 nM. `C=CC[C@H](NC(=O)[C@H](Cc1ccccc1)NS(=O)(=O)N1CCOCC1)C(=O)N[C@@H](CC(C)C)C(O)C(F)(F)C(=O)NCCN1CCOCC1` (stereo partly shown) returned an IC50 of 11 nM. The result for `CCC(C)CNC(=O)C[C@H](O)[C@H](CC(C)C)NC(=O)[C@H](Cc1cnc[nH]1)NC(=O)[C@H](Cc1ccccc1)NS(=O)(=O)N1CCOCC1` (stereo partly shown) reads 20 nM. The same measure for `CCC(C)CNC(=O)C[C@H](O)[C@H](CC(C)C)NC(=O)[C@H](CC#N)NC(=O)[C@H](Cc1ccccc1)NS(=O)(=O)N1CCOCC1` (stereo partly shown): 25 nM; for `CCC(C)CNC(=O)C[C@H](O)[C@H](CC(C)C)NC(=O)[C@H](Cc1cnc[nH]1)NC(=O)[C@H](Cc1ccccc1)NC(=O)N1CCCC1` (stereo partly shown): 490 nM. The same measure for `CCC(C)CNC(=O)C[C@H](O)[C@H](CC(C)C)NC(=O)[C@H](Cc1cnc[nH]1)NC(=O)[C@H](Cc1ccccc1)NC(=O)CN1CCOCC1` (stereo partly shown): 250 nM; for `CCC(C)CNC(=O)C[C@H](O)[C@H](CC(C)C)NC(=O)C(NC(=O)[C@H](Cc1ccccc1)NS(=O)(=O)N(C)C)C(=O)OC` (stereo partly shown): 25 nM. On to `CCC(C)CNC(=O)C[C@H](O)[C@H](CC(C)C)NC(=O)[C@H](Cc1cnc[nH]1)NC(=O)[C@H](Cc1ccccc1)NC(=O)N1CCOCC1` (stereo partly shown), for which the half-inhibitory concentration (IC50) came out at 330 nM.

For `C=CC[C@H](NC(=O)[C@H](Cc1ccccc1)NS(=O)(=O)N1CCOCC1)C(=O)N[C@@H](CC(C)C)C(=O)C(F)(F)C(=O)NCCN1CCOCC1`, the IC50 stood at 6 nM.

In turn, `COC(=O)C(NC(=O)[C@H](Cc1ccccc1)NS(=O)(=O)N1CCOCC1)C(=O)N[C@@H](CC(C)C)C(=O)C(F)(F)C(=O)NCCN1CCOCC1` (stereo partly shown) yielded an IC50 of 15 nM. The same measure for `CCC(C)CNC(=O)C[C@H](O)[C@H](CC(C)C)NC(=O)[C@H](Cc1c[nH]cn1)NC(=O)[C@H](Cc1ccccc1)NC(=O)N1CCN(C(=O)OCc2ccccc2)CC1` (stereo partly shown): 140 nM; for `CC(C)C[C@H](NC(=O)[C@H](Cc1c[nH]cn1)NC(=O)[C@H](Cc1ccccc1)NS(=O)(=O)N1CCOCC1)[C@@H](O)CC(=O)NCCN1CCOCC1`: 300 nM; for `CCC(C)CNC(=O)C[C@H](O)[C@@H](NC(=O)[C@H](Cc1c[nH]cn1)NC(=O)[C@H](Cc1ccccc1)NS(=O)(=O)N1CCOCC1)C1CCCCC1` (stereo partly shown): 4.8 nM.
